This is an account of results in US9969744B2, “Compounds for use in cognition improvement” (FUNDACIÓN PARA LA INVESTIGACIÓN MÉDICA APLICADA, priority 2014, dated 2018).

Amino acid sequences for entries named in this document (tags omitted). Residues count along the entry.
UniProt O76083, 1-533 isoform O76083-2: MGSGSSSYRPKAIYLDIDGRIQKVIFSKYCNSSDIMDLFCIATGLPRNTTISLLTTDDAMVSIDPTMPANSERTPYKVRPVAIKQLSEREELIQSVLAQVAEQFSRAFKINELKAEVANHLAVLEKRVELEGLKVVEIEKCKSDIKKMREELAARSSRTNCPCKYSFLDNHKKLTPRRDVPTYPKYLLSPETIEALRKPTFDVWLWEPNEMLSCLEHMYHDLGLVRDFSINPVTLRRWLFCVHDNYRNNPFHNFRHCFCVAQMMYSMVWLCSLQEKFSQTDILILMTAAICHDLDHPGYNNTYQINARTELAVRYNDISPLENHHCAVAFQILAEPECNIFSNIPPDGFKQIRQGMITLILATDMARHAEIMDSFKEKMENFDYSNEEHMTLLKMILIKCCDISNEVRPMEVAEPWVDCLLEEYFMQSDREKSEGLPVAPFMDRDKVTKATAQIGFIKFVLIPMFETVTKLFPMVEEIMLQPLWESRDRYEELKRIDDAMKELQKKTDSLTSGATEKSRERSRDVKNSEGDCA

This experiment concerns the target T1, PDE9A (Homo sapiens, UniProt O76083).
T1 construct: they are full-length with N-terminal GST tag; GST (N); purchased BPS Biosciences 60090; host or cells: baculovirus infected Sf9 cells
As to the kind of experiment: PDE enzyme activity assay (HTRF cGMP), PDE9A. It is filed as biochemical. The conditions noted are these: recombinant enzyme; read-out: PDE9A inhibition (IC50). The text has this:
The biochemical assay to measure PDE5A, PDE9A isoform b, PDE4D7, and PDE4A1 enzyme activities relies on the HTRF cGMP assay kit from CisBio (CisBio, Cat. #62GM2PEB), that determines the amount of cGMP present in the reaction. The enzymes were obtained from BPS Biosciences (GenBank Accession number for PDE5A: NM_001083, Cat. #60050; PDE9A: NM_001001567, Cat. #60090; PDE4D7: NM_001165899, Cat. #60047; and PDE4A1: U97584, Cat. #60040) and they are full-length with N-terminal GST tag. They were expressed in a baculovirus infected Sf9 cell expression system.
For each enzyme, enzyme activity assay was carried out in a 384-well plate in a final volume of 20 μL, as follows: • 2.5 μL of vehicle or studied compound 4× concentrated prepared in assay buffer containing 50 mM Tris-HCl, 6 mM MgCl2, pH 7.4 (PDE5A, PDE4D7, PDE4A1) and additionally 0.03% Tween-20 (PDE9A). Final percentage of DMSO was 0.5%. • 2.5 μL of PDE5A (7 μg/mL) or 2.5 μL PDE9A (0.2 μg/mL) or 2.5 μL PDE4D7 (1.25 μg/mL) or 2.5 μL PDE4A1 (1.5 μg/mL) diluted in assay buffer. […]
Fluorescence of each well was determined at 665 nm excitation and 620 nm emission using the plate reader EnVision (Perkin-Elmer). Results, Table 1 (below), were calculated from the 665 nm/620 nm ratio. […]
(In general: Time-resolved FRET reads energy transfer from a long-lived donor to a nearby acceptor.)

A word on the IC50: it is the midpoint of a concentration-inhibition curve. Consider `CCCc1nn(C)c2c(=O)[nH]c(-c3cc(S(=O)(=O)N4CCN(C)CC4)ccc3OCC)nc12` [Sildenafil, reference compound], for which the IC50 is 1 to 10 µM.
